## Yeast mating assay B: variants of the scFv Ab-14

Data: MIT Lincoln Laboratory AlphaSeq set, Li et al. 2023, doi:10.1038/s41467-023-39022-2, as distributed in FLAb.

Antigen: PDVDLGDISGINAS, a 14-residue peptide of the SARS-CoV-2 spike HR2 region.

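The starting antibody came from a phage panning campaign against this peptide. Designed CDR sequences, proposed from the first random library and measured here. Several design methods are mixed in this list. The assay is AlphaSeq: two haploid yeast populations carry antibody and antigen on their surface. Pairs that bind mate more often; barcode pairs of the diploids are counted by sequencing. The ratio of observed to expected reads was calibrated, replicate by replicate, on BCL2-family standards whose Kd was known from biolayer interferometry. There are six technical replicates.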

Parent: Ab-14, a human scFv built as VH, a 15-residue (Gly4Ser)3 linker, VL. Only the CDRs of the light chain vary.
VH: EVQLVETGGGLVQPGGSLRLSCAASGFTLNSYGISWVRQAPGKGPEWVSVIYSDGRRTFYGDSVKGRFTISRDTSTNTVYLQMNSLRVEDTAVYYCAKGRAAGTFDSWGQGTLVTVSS
VL: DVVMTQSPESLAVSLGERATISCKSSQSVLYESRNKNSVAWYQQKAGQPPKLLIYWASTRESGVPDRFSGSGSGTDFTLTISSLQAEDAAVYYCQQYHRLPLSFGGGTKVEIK

Variants are written as CDR1, CDR2 and CDR3 of the light chain (limits as in the source). Parent: KSSQSVLYESRNKNSVA, WASTRES, QQYHRLPLS. Variants here have more than six changes. Kd is apparent (estimated from mating counts) and averaged on the log scale over replicates with a signal. Smaller is tighter. Order: sorted from the lowest average up. A sequence measured in both rounds can read differently, since the two assays cover different ranges. The authors averaged sequences with at least three values out of six and counted those with two or fewer as poor binders. Three control strains display no target. For all light chain designs, 4% of the pairings with them gave a signal, with a median of 430 nM and one signal in twenty below 38 nM, so weak values seen in few replicates may be background. The control count says in how many pairings with the empty strains this scFv gave a signal.

- HLSQSVWQESRNKNSVA / EASQRER / QQYHRLPLS -> 630 pM (6 of 6 replicates; controls 0 of 18)
- KISQATRMESRNKASVA / ENSTRES / QQYFRLPLS -> 660 pM (6 of 6 replicates; controls 4 of 18)
- KIIQEGLYESRNKNSVA / SASTRCP / QQYHRLPLS -> 740 pM (6 of 6 replicates; controls 5 of 18)
- KLYFNVGTMAHNTQSIA / DMERRED / QQYHRLPLS -> 880 pM (6 of 6 replicates; controls 1 of 18)
- NLSWKQIGQNMESMAVA / GTEQRNA / QQYARLPLS -> 920 pM (6 of 6 replicates; controls 1 of 18)
- KLSCSMEYESRNKNSVA / NASTREE / GQYHRLPLT -> 2.1 nM (6 of 6 replicates; controls 1 of 18)
- HLSDLLSYGKDLQRAVA / GVQTRMT / QQYARLPLF -> 2.3 nM (6 of 6 replicates; controls 1 of 18)
- KIGMTLNQLYQKNNNVA / DLVTREN / QQYHRLPLS -> 2.3 nM (6 of 6 replicates; controls 0 of 18)
- SLQTKYSTAQDRWSNVA / HADQREA / QQYFRLPIV -> 2.8 nM (6 of 6 replicates; controls 0 of 18)
- NLVGRVPDMYDGRNAIA / DMHAKAT / QQYFRLPLA -> 2.9 nM (6 of 6 replicates; controls 1 of 18)
- KLVQSNLYESRNTNSVA / NASQRLQ / QQYHRLPLS -> 2.9 nM (6 of 6 replicates; controls 2 of 18)
- GILSQMDGPTEYKENIA / NGTERLR / QQYQRLPLT -> 3.1 nM (6 of 6 replicates; controls 0 of 18)
- KISQMVRVGSTASNSIA / EEVTRAK / QQYHRLPLS -> 3.5 nM (6 of 6 replicates; controls 1 of 18)
- HMSMLTLGGMRQRNSVA / QMTTREN / QQYDRLPLA -> 3.8 nM (6 of 6 replicates; controls 0 of 18)
- KIEISNSWSLRGTKAIA / QASTRAH / QQYQRLPLL -> 4.0 nM (6 of 6 replicates; controls 3 of 18)
- KISGYLNKESKNKNNVA / EMVNRES / QQYDRLPLS -> 4.3 nM (6 of 6 replicates; controls 2 of 18)
- KLSMSDLYEMRNGNSVA / EASTREK / QQYHRLPLS -> 5.2 nM (6 of 6 replicates; controls 0 of 18)
- QFHQGMIGDQRNMQSVA / NAQAAVP / QYYFRLPLT -> 5.7 nM (6 of 6 replicates; controls 0 of 18)
- MVNGIMDHLSKNSNNVA / ETETRNS / QQYDRLPLS -> 8.0 nM (6 of 6 replicates; controls 1 of 18)
- KLSQITGHMSVSKNNVA / EMETRAK / QQYDRLPLS -> 8.1 nM (6 of 6 replicates; controls 3 of 18)
- KLSISHHVESINKSNVA / EMVTRES / QQYDRLPLS -> 9.6 nM (6 of 6 replicates; controls 0 of 18)
- KQSQSFLYESRNSNSVA / DASQREQ / QDYHRLPLM -> 9.9 nM (6 of 6 replicates; controls 0 of 18)
- MFSQLVYTGSHTRNAVA / QASTREN / QQYHRLPLS -> 11 nM (6 of 6 replicates; controls 0 of 18)
- KISQSHPYEDRNFNSVA / NASYRCS / QQYHRLPLS -> 14 nM (6 of 6 replicates; controls 0 of 18)
- KLSQAVNVTGKNSNSVA / ELSFREK / QQYDRLPLS -> 16 nM (6 of 6 replicates; controls 1 of 18)
- KISQMVRVGATVSNSIA / EEVTRAK / QQYHRLPLA -> 18 nM (6 of 6 replicates; controls 1 of 18)
- IVTQLMLWGWHAKNSIA / EAQTRLN / QQYDRLPLF -> 21 nM (3 of 6 replicates; controls 0 of 18)
- MISQLYNMGSFAINSVA / QASQRNA / QQYDRLPLT -> 23 nM (5 of 6 replicates; controls 0 of 18)
- NISESMYFQTRNKNNIA / EMSTRER / QHYHRLPLS -> 41 nM (6 of 6 replicates; controls 0 of 18)
- KLGQSVAMTSRNKNNVA / DLNERER / QQYDRLPLS -> 100 nM (5 of 6 replicates; controls 0 of 18)
- HLGLATMLEEYVRNSVA / NNSTRED / QQYDRLPLS -> 260 nM (4 of 6 replicates; controls 0 of 18)
- KLSQFYRMETRNKNSVA / DNSTRES / QDYDRLPLS -> 20 µM (1 of 6 replicates; controls 2 of 18)